Assay [1] concerns the target endothelin receptor (ET-A), cow aorta (Bos taurus, UniProt P21450). Briefly: [125I]-ET-1 endothelin receptor binding assay, cow aorta membranes. The note with it: for Ki: read-out: Ki vs. [125I]-ET-1, Cow Aorta (ET-A), ET-A; for IC50: read-out: [125I]endothelin binding: IC50, cow aorta, 150 pM 125I-ET-1, 37° C. Here is the method:
(§1) The binding of cochinmycins IV and V to the endothelin receptor was determined in accordance with the assay described in detail immediately below. It is similar to the assay described in Ambar et al. (1989) Biochem. Biophys. Res. Commun. 158, 195-201; and Kloog et al. (1989) Febs Letters, 253, 199-202.
(§2) Endothelin-1 (ET-1) was purchased from Peptides International (Louisville, Ky.). ^125 I-ET-1(2000 Ci/mMol) was purchased from Amersham (Arlington Heights, Ill.).
(§3) Membranes were prepared from rat hippocampus, and rat or cow aorta. Dissected tissue was homogenized twice for 30 seconds with a Brinkman POLYTRON [setting 10, Generator PTA 20 TS (Westbury, N.Y.)] in ice cold 250 mM sucrose, 50 mM Tris-HCl pH 7.4 with 7 μg/ml pepstatin A and 0.5 μg/ml leupeptin. The crude particulate matter was removed by centrifugation at 750×g for 10 min. The membranes were sedimented from the supernatant fraction by centrifugation at 48,000 g for 30 min. Membrane pellets were resuspended in the above buffer with protease inhibitors. Aliquots of these suspensions were stored at -70° C.
(§4) Binding studies with ^125 I-ET-1were conducted in 50 mM potassium phosphate pH 7.5 with 0.1% bovine serum albumin (BSA) using 12-well SKATRON (Lier, Norway) cell harvester tube strips. ^125 I-ET-1 concentrations were 25 pM for hippocampus, 150 pM for aorta. Samples were dissolved in dimethylsulfoxide (DMSO). Upon addition of the sample, the final DMSO concentration was 3%. Membranes were added last to start the binding reaction. The reaction mixture was incubated at 37° C. for 30 or 60 minutes. Binding reactions were terminated using a SKATRON cell harvester by filtration through glass fiber filter pads presoaked with 2% BSA. The samples on the pads were immediately washed with 150 mM NaCl 0.1% BSA. The pads were punched out and radioactivity was evaluated in a Beckman GAMMA 5500 gamma counter (Fullerton, Calif.). Nonspecific binding was determined in the presence of 100 nM ET-1.

Chains of the proteins cited; added tags and fusions are not shown. Residues count along the entry.
UniProt P21450, 21-427 limits assumed: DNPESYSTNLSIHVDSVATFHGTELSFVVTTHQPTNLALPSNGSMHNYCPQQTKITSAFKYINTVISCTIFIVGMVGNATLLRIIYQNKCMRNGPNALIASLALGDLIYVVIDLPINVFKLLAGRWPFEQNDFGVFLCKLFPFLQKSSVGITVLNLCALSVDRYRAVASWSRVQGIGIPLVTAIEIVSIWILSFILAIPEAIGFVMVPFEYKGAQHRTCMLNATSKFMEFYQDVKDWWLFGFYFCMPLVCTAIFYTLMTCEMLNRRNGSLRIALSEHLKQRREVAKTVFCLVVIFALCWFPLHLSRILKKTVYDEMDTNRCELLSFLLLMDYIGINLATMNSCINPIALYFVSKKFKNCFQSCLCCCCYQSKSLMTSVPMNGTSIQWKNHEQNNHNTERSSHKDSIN
UniProt P21451, 27-442 limits assumed: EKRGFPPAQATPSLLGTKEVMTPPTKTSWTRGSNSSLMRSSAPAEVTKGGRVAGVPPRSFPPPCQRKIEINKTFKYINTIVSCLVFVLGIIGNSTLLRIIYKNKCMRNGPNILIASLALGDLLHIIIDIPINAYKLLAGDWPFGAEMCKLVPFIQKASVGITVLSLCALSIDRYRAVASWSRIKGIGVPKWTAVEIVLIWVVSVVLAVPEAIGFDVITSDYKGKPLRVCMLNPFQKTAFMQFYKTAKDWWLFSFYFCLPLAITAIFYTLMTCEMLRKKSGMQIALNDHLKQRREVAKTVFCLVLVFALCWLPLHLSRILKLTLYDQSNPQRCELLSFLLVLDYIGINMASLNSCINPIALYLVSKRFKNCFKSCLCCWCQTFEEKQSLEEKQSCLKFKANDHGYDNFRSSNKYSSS

Assay [2] has as its target endothelin receptor (ET-B), rat hippocampus (Rattus norvegicus, UniProt P21451). Put plainly: [125I]-ET-1 endothelin receptor binding assay, rat hippocampus membranes. The note with it: for Ki: read-out: Ki vs. [125I]-ET-1, Rat Hippocampus (ET-B), ET-B; for IC50: read-out: [125I]endothelin binding: IC50, rat hippocampus, 25 pM 125I-ET-1, 37° C. Here is the method:
as §1, §2, §3, §4

What is called Ki is a measure of affinity in units of concentration, obtained from inhibition or displacement. One may read the IC50 as the concentration that inhibits the measured activity by half.

As for `C[C@H]1NC(=O)[C@@H](Cc2ccccc2)NC(=O)[C@H](NC(=O)[C@H](Cc2ccccc2)NC(=O)c2ccc[nH]2)[C@@H](C)OC(=O)[C@H](c2cc(O)cc(O)c2)NC(=O)[C@@H](c2cc(O)cc(O)c2)NC1=O`, in assay [1], the Ki was determined as 9000 nM and the IC50 was 90000 nM. Further, in assay [2], the Ki came to 2500 nM and the IC50 is 25000 nM.
For `C[C@H]1OC(=O)[C@H](c2cc(O)cc(O)c2)NC(=O)[C@@H](c2cc(O)cc(O)c2)NC(=O)[C@@H](CO)NC(=O)[C@@H](Cc2ccccc2)NC(=O)[C@@H]1NC(=O)[C@H](Cc1ccccc1)NC(=O)c1ccc(Cl)[nH]1`, in that order: 300 nM, 3000 nM, 200 nM and 2000 nM.

The record behind these values is patent publication US5240910A.
